The source of these data is patent publication US6645738B1, “DNA molecules encoding the melanocortin 5 receptor protein from rhesus monkey” (Merck & Co., Inc., priority 1998, dated 2003).

Chains of the proteins cited; added tags and fusions are not shown. Lines headed by an entry give the natural chain unless they say otherwise; changes in a name come on top.
UniProt P33032: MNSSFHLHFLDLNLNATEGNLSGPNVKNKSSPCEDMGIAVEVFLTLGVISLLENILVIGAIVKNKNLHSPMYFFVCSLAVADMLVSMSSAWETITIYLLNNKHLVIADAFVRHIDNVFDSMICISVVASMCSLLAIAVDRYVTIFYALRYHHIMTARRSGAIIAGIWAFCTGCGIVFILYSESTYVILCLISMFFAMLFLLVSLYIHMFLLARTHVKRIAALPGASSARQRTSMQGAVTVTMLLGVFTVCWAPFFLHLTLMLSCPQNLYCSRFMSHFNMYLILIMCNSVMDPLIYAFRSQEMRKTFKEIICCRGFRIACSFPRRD
UniProt P01189: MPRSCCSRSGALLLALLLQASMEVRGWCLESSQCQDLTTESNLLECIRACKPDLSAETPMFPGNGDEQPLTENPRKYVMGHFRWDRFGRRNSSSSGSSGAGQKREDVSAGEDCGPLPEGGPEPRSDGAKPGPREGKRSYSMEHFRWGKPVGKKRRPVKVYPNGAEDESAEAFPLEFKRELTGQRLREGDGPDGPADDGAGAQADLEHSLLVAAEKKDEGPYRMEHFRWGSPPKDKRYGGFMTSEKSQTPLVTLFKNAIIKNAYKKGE

Where two headings read alike, the source gives them in different places.

Assay [1] addresses T1, human melanocortin 5 receptor (human, UniProt P33032 1-325). The assay is described as follows: displacement of 0.1 nM 125I-NDP-α-MSH from CHO cells stably expressing hMC-5R. As to the method:
The receptor plasmid was transfected into CHO dhfr-cells using lipofectamin (GIBCO). Transfected cells were selected by G418 for at least 2–3 weeks before binding and functional assays were performed. […] After incubation at room temperature for 3 hours, wells were washed 3 times by PBS, lysed in 0.5 ml of 0.05% SDS and counted by a gamma counter.
(§1) A cDNA encoding human MC-5R subcloned into the pIRES1neo expression vector (Clontech) and stably transfected into CHO cells was used as a reference for the pharmacological properties of the rhesus MC-5R. Single clones were used in all pharmacological studies as described above. The functional properties of rhMC-5R were determined by heterologous expression in CHO cells.

For assay [2], the target named is T2, human MC-5R (Homo sapiens, UniProt P33032).
T2 construct: expressed in transfected cells
Type of assay: binding. The conditions noted are these: read-out: IC50, nM hMC-5R. On the procedure: The receptor plasmid was transfected into CHO dhfr- cells using lipofectamin (GIBCO). Transfected cells were selected by G418 for at least 2-3 weeks before binding and functional assays were performed. […] After incubation at room temperature for 3 hours, wells were washed 3 times by PBS, lysed in 0.5 ml of 0.05% SDS and counted by a gamma counter.
(§2) Single clones were used in all pharmacological studies as described above.
as §1

For assay [3], the target named is T2, human MC-5R. In kind it is cell-based. The conditions noted are these: read-out: EC50, nM hMC-5R. On the procedure: To determine the functional activation of receptors, stably transfected CHO cells were washed once with PBS without Ca^++/Mg^++, dissociated by non-enzymatic dissociation medium (Specialty Media, Inc.) at 37° C. for 10 min. Dissociated cells were resuspended in EBSS buffer containing 25 mM Hepes, 5 mM MgCl2, 0.1% BSA and 50 mM IBMX and incubated with agonist at room temperature for 45 min. The agonist activation was terminated by boiling for 4 min.
as §2, §1

Assay [4] addresses T1, human melanocortin 5 receptor. The assay is described as follows: cell-based or functional assay.

What is called IC50 is the midpoint of a concentration-inhibition curve. Take MT-II (peptide): the IC50 in assay [1] turned out to be 18 nM.

Usually EC50 stands for the concentration giving half of the maximal effect. Consider MT-II [MTII], for which the IC50 on human MC-5R [2] turned out to be 18 ± 3 nM. On human MC-5R [3], the EC50 is 0.8 ± 0.2 nM.

On to NDP-α-MSH, for which the IC50 on human MC-5R [2] turned out to be 0.5 ± 0.1 nM. For the same molecule, the EC50 at human MC-5R [3] was 0.3 ± 0.1 nM.

With human ACTH(1-24) [ACTH1-24], the IC50 at human MC-5R [2] was 1050 ± 500 nM. In addition, at human MC-5R [3] (intracellular cAMP, CHO cells, agonist 45 min at room temperature), the EC50 stood at 5 ± 1 nM.

Take α-MSH: at human MC-5R [2], the IC50 was determined as 1800 ± 200 nM. Moreover, on human MC-5R [3], the EC50 was 12 nM.

For SYSMEHFRWGKPV (peptide, UniProt P01189 138-150, looked up, also called α-MSH) [α-melanocyte stimulating hormone], in assay [4], the “EC50, nM (cAMP synthesis in CHO cells)” value is 12 nM. For the same molecule, the IC50 in assay [1] came out at 1800 nM.

In assay [1], SYSMEHFRWGKPVGKKRRPVKVYP (peptide, UniProt P01189 138-161, looked up, range 138-161) [human ACTH(1-24)] gave an IC50 of 1050 nM.
